# The list shows a part of the results, in another mix than the full data. Activity calls are given as the source filed them.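 The calls were made as follows: active = plate z-score of nuclear minus cytoplasmic receptor signal below a set negative limit, without overly bright fluorescence or cell loss (cut at about -3.5 in these data, passing the limit was not always enough); inactive = the rest, inconclusive results apart.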
# Test: inhibitors of GR-EGFP nuclear translocation, primary screen, dynein cargo transport inhibitor project, imaging, high-content, 3617.4 mouse cells (AID 1381)
# Conditions: active compounds read low, stimulated with dexamethasone, 1 µM; at 20 µM unless noted
row,SMILES,z-score
1,CP(=O)(Nc1ccccc1F)Oc1ccccc1 (stereo not drawn),inactive: -0.0553
2,CP(=O)(Nc1ccc2c(c1)OCCO2)Oc1ccccc1 (stereo not drawn),inactive: 0.121 [at 50 µM]
3,Cc1ccccc1NP(C)(=O)Nc1ccccc1C,inactive: -0.446
4,O=P(Nc1nccs1)(c1ccccc1)c1ccccc1,inactive: 0.601 [at 50 µM]
5,CC(C)C(=O)NC(Sc1ccccc1)C(Cl)(Cl)Cl (stereo not drawn),inactive: -0.227
6,CP(=O)(Nc1ccc(SC(F)(F)F)cc1)Oc1ccc(F)cc1 (stereo not drawn),inactive: -0.351
7,c1nnnn1CCn1cnnn1,inactive: -0.0958
8,CCOP(C)(=S)SCC(=O)NC(C)(CC)C(=O)O (stereo not drawn),inactive: -0.574
9,O=[As](O)(c1ccccc1)c1ccc(O)cc1,inactive: 0.605
10,Cc1cc(-c2cccc3ccccc23)c(C)cn1.O=[N+]([O-])c1cc([N+](=O)[O-])c(O)c([N+](=O)[O-])c1,inactive: -0.923
11,O=[N+]([O-])c1cc([N+](=O)[O-])c(NCC2CCS(=O)(=O)C2)c([N+](=O)[O-])c1 (stereo not drawn),inactive: -0.438
12,O=[N+]([O-])c1ccc(OP2(=O)COCCO2)cc1 (stereo not drawn),inactive: 0.0905
13,CC(=O)NC(SC(=S)N(C)C)C(Cl)(Cl)Cl (stereo not drawn),inactive: 0.506
14,O=[N+]([O-])c1ncn(CCn2cnc([N+](=O)[O-])n2)n1,inactive: 0.775
15,O=C(OC1CN2CCC1CC2)c1cccc(Cl)c1 (stereo not drawn),inactive: 0.103
16,Nc1ccc([As](=O)(O)c2ccc([N+](=O)[O-])cc2)cc1,inactive: -0.133
17,C(Cc1nn[nH]n1)Cc1nn[nH]n1,inactive: -0.926
18,O=P(Nc1ccccn1)(c1ccc(Br)cc1)c1ccc(Br)cc1,inactive: -0.31
19,COc1ccc(OP(C)(=O)Nc2cccc(Br)c2)cc1 (stereo not drawn),inactive: -0.0585
20,COc1ccc(NP(C)(=O)Oc2ccccc2OC)cc1 (stereo not drawn),inactive: -0.775
21,O=P(Nc1nc2ccccc2s1)(c1ccccc1)c1ccccc1,inactive: 0.263
22,CN(C)CCOC(=O)C(O)(c1ccccc1)C1CCCCC1 (stereo not drawn),inactive: 0.281 [at 50 µM]
23,C[C@H]1OP(=O)(Oc2ccccc2)[C@H](O)[C@H](O)[C@H]1N=[N+]=[N-] (stereo partly drawn),inactive: -0.0286

# Reference: PubChem BioAssay AID1381 (University of Pittsburgh Molecular Library Screening Center, 2008)
